Experimental findings from patent US9061010B2, “Methods of treating a Flaviviridae family viral infection and compositions for treating a Flaviviridae family viral infection” (The Board of Trustees of the Leland Stanford Junior …, priority 2007, dated 2015) are described below.

Each structure is given as a SMILES string.

Test system in the first data set: not listed separately
As to the kind of experiment: Alamar Blue viability assay. As to conditions: human. On the procedure:
(§1) Huh-7.5 cells were maintained in Dulbecco's modified minimal essential medium (Gibco) supplemented with 1% L-glutamine (Gibco), 1% penicillin, 1% streptomycin (Gibco), 1× nonessential amino acids (Gibco) and 10% fetal bovine serum (Omega Scientific). Cell lines were passaged twice weekly after treatment with 0.05% trypsin-0.02% EDTA and seeding at a dilution of 1:5. Subconfluent Huh-7.5 cells were trypsinized and collected by centrifugation at 700 g for 5 min. The cells were then washed three times in ice-cold RNase-free PBS (BioWhittaker) and resuspended at 1.5*10^7 cells/ml in PBS. Wild type or mutant FL-J6/JFH-5′C19Rluc2AUbi RNA for electroporation was generated by in vitro transcription of XbaI-linearized DNA templates using the T7 MEGAscript kit (Ambion), followed by purification, essentially as described above (In vitro RNA transcription and fluorescent labeling). 5 μg of RNA was mixed with 400 μl of washed Huh-7.5 cells in a 2 mm-gap cuvette (BTX) and immediately pulsed (0.82 kV, five 99 μs pulses) with a BTX-830 electroporator. After a 10 min recovery at 25° C., pulsed cells were diluted into 10 ml of prewarmed growth medium. Cells from several electroporations were pooled to a common a stock and seeded in 6 well plates (5*10^5 cells per well). After 24 hr, medium was replaced and cells were grown in the presence of serial dilutions of the various inhibitory compounds (Sigma) identified in the screen. […] Untreated cells were used as a negative control for water soluble compounds. For compounds solubilized in DMSO, untreated cells were grown in the presence of corresponding concentrations of the solvent as a negative control. Medium was changed daily. After 72 hr of treatment, cells were subjected to an alamar blue based viability assay and luciferase assay.
(§2) Following 72 hrs of treatment, cells were incubated for 3 hrs at 37° C. in the presence of 10% Alamar Blue reagent (TREK Diagnostic Systems).
A general note: Resazurin is reduced to fluorescent resorufin, in cell work by metabolically active cells.
One may read the viability as the share of living cells, or the viability signal relative to a control. The low end stands for a greater loss of cells, the high end for better survival. With `Cc1nc2cc(Cl)ccc2n1Cc1ccccc1`, the viability at 72 h, 5 µM fell in the range of 90 to 100% and the viability at 72 h, 10 µM lay in the range of 90 to 100%.
Consider `OCc1nc2ccccc2n1Cc1ccc(Br)cc1`, for which the viability at 72 h, 5 µM was 90 to 100% and the viability at 72 h, 10 µM is 90 to 100%.
`COC(=O)c1ccc(Cn2cnc3ccccc32)cc1` had a viability at 72 h, 5 µM of 90 to 100% and a viability at 72 h, 10 µM of 90 to 100%.
In the case of `Cc1ccc(Cn2cnc3ccccc32)cc1`, the viability at 72 h, 5 µM is 90 to 100%.
`COc1ccc(Cn2cnc3ccccc32)cc1` had a viability at 72 h, 5 µM of 90 to 100% and a viability at 72 h, 10 µM of 90 to 100%.

The test system of the next data set is Huh7.5 cells. As to the kind of experiment: Alamar Blue viability assay. As to conditions: 5 uM. On the procedure:
as §1, §2
In the case of `Cc1nc2cc(Cl)ccc2n1Cc1ccccc1`, the “Viab, percent of normal cell viability remaining” value is listed as 99%.
On to `Cc1cc2ncn(Cc3ccc(Cl)cc3Cl)c2cc1C`, for which the Viab score result was “+ (60-90% residual activity)” and the “Viab, percent of normal cell viability remaining” value was 83%.
As to `Brc1ccc(Cn2cnc3ccccc32)cc1`, the Viab score result is reported as “+ (60-90% residual activity)” and the “Viab, percent of normal cell viability remaining” value amounted to 81%.
For `Cc1nc2ccccc2n1Cc1ccc(Br)cc1` the same measures were “++ (30-60% residual activity)” and 54%.
In the case of `OCc1nc2ccccc2n1Cc1ccc(Br)cc1`, the “Viab, percent of normal cell viability remaining” value worked out at 97%.
Take `COC(=O)c1ccc(Cn2cnc3ccccc32)cc1`: the “Viab, percent of normal cell viability remaining” value was 101%.
Regarding `CC(C)(C)c1ccc(Cn2cnc3ccccc32)cc1`, the Viab score result was “+ (60-90% residual activity)” and the “Viab, percent of normal cell viability remaining” value came out at 87%.
Consider `Cc1ccc(Cn2cnc3ccccc32)cc1`, for which the “Viab, percent of normal cell viability remaining” value came to 99%.
Take `COc1ccc(Cn2cnc3ccccc32)cc1`: the “Viab, percent of normal cell viability remaining” value is 98%.

The same data set, now with this note: 10 uM.
Turning to `Cc1nc2cc(Cl)ccc2n1Cc1ccccc1`, the “Viab, percent of normal cell viability remaining” value turned out to be 94%.
Turning to `Cc1cc2ncn(Cc3ccc(Cl)cc3Cl)c2cc1C`, the Viab score result was “+ (60-90% residual activity)” and the “Viab, percent of normal cell viability remaining” value stood at 70%.
The corresponding values for `Brc1ccc(Cn2cnc3ccccc32)cc1` are “+ (60-90% residual activity)” and 68%.
As for `Cc1nc2ccccc2n1Cc1ccc(Br)cc1`, the Viab score result is listed as “++ (30-60% residual activity)” and the “Viab, percent of normal cell viability remaining” value turned out to be 51%.
On to `OCc1nc2ccccc2n1Cc1ccc(Br)cc1`, for which the “Viab, percent of normal cell viability remaining” value came to 90%.
`COC(=O)c1ccc(Cn2cnc3ccccc32)cc1`: the “Viab, percent of normal cell viability remaining” value was found to be 96%.
Regarding `CC(C)(C)c1ccc(Cn2cnc3ccccc32)cc1`, the Viab score result is listed as “+ (60-90% residual activity)” and the “Viab, percent of normal cell viability remaining” value was found to be 76%.
For `Cc1ccc(Cn2cnc3ccccc32)cc1` the same measures were “+ (60-90% residual activity)” and 84%.
For `COc1ccc(Cn2cnc3ccccc32)cc1`, the “Viab, percent of normal cell viability remaining” value came out at 100%.
